Values quoted from earlier work, collected in US20220265830A1, “LONG-ACTING FORMULATIONS AND VEHICLES” (DURECT CORPORATION, priority 2019, published 2022).

Conditions: cited from earlier work

In the case of `Cc1cc2c(s1)Nc1ccccc1N=C2N1CCN(C)CC1` [Olanzapine], the logP is given as 4.094.
